Assay outcomes: PubChem, Broad Institute
Hits are enriched below; roughly 2.1% of the tested compounds scored in any of these assays.
PGC1a acetyl inh: inhibitors of PGC1a acetylation signal, primary screen, cell-based, U2OS, AlphaScreen, inhibitor mode; AlphaScreen anti-acetyl-lysine; with virally co-expressed GCN5 acetyltransferase; inhibition, % at 15.6 µM; hit rate 0.17% among 350,000; AID 651687, 2012;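 active = every replicate shows inhibition of at least 40%; inconclusive = mean inhibition at least 40% but some replicate below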;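 also: 0% = neutral control wells and 100% = positive control wells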
MITF TRPM1 inh: inhibitors of MITF-dependent TRPM1 promoter reporter, primary screen, cell-based, SK-MEL-5, single point, luciferase. SK-MEL-5 TRPM1 promoter luciferase, 24 h. inhibition, % at 12.5 µM. hit rate 0.83% among 330,000;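 active = mean inhibition across replicates of 60% or more, whatever share of single replicates reaches that level; inconclusive = some that reach 60%, reason not given; inactive = mean inhibition across replicates below 60%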
Wnt bcat act: Wnt/beta-catenin pathway activators, primary screen, cell-based, plate reader, single point | Wnt/beta-catenin reporter cell assay, activator | activation, % at 9.35 µM | hit rate 1.2% among 300,000 | AID 743398, 2014; in the data active = activation above about 30%, passing the limit was not always enough; inconclusive = no clear call, values can overlap the other calls;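 also: 0% = neutral control wells and 100% = positive control wells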
MITF TRPM1 HTS: activators of MITF-driven TRPM1 promoter reporter, primary screen, cell-based, SK-MEL-5, luciferase, single point | AID 588334, 2011 | SK-MEL-5 TRPM1-promoter luciferase, 24 h; % of positive control, neutral wells = 0 | hit rate 0.75% among 300,000 | activation, % at 12.5 µM;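 active = mean activation of at least 80% with every replicate also reaching 80%; inconclusive = mean reaches 80% but some replicate falls short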;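 also: 0% = neutral control wells and 100% = parthenolide positive control wells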
miR122 inh: miR-122 Renilla sensor signal increase in Huh7, primary screen, miR-122 inhibitor project, cell-based, single point, plate reader; hit rate 0.3% among 340,000; Huh7 miR-122 Renilla luciferase sensor, 48 h; neutral wells = 0, positive control = 100; activation (reporter increase), % at 12.5 µM; AID 602342, 2012;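 active = mean replicate activation score at least 90 and every replicate individually at or above 90; inconclusive = only one of the two criteria met; inactive = neither criterion met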;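 also: higher luciferase means less miR-122 activity so hits act as miR-122 inhibitors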
Yeast UUG start: alters start codon recognition fidelity in yeast | S. cerevisiae UUG-firefly luciferase reporter, luminescence/redox ratio | activity score, % at 18.7 µM | 350,000 compounds, 0.13% hits | AID 602363;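 active = replicate mean at a twofold rise or more, about +100% in these data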;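 note: firefly luciferase made from a UUG start codon reports start codon fidelity; reporter light over untreated wells divided by growth signal over untreated wells; some hits fall short of that in this replicate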
Starred values were filed as active, the others as inactive; ? = inconclusive; nt = not tested or not shown; [ ] = another dose, or the depositor's remark.

| nr | Molecule | PGC1a acetyl inh | MITF TRPM1 inh | Wnt bcat act |
| --- | --- | --- | --- | --- |
| 1 | COc1ccc(C(=O)COC(=O)CCc2ccccc2)cc1 | 3 | -5 | 5 |
| 2 | O=C(O)c1cccc(COc2ccc(CO)cc2Cl)c1 | 9 | 105* | 0 |
| 3 | O=C(NCc1ccccc1)c1cccc(COc2ccc3c(c2)CCC3)c1 | nt | 21 | nt |
| 4 | CCNC(=O)[C@H]1[C@H](CO)[C@H]2Cn3c(ccc(-c4ccccc4F)c3=O)[C@@H]1N2CCC(F)(F)F | nt | nt | nt |
| 5 | CCC(=O)N(C)C[C@H]1Oc2ncc(C3=CCCC3)cc2C(=O)N([C@H](C)CO)C[C@@H]1C | 0 | nt | nt |
| 6 | Cc1noc(C)c1NC(=O)N(C)C[C@H]1OCCCC[C@H](C)Oc2ccc(NS(=O)(=O)c3ccc(Cl)cc3)cc2C(=O)N([C@H](C)CO)C[C@@H]1C | 2 | nt | nt |
| 7 | CCOc1ccc(OCc2cccc(C(=O)N3CCCC3)c2)cc1 | -10 | 29 | nt |
| 8 | CCOc1ccc(OCc2cccc(C(=O)O)c2)cc1 | 1 | 93* | -13 |

| nr | MITF TRPM1 HTS | miR122 inh | Yeast UUG start |
| --- | --- | --- | --- |
| 1 | 8 | -6 | 7 |
| 2 | -104 | nt | nt |
| 3 | -27 | nt | nt |
| 4 | nt | -2[16.7 µM] | nt |
| 5 | nt | -1[16.7 µM] | 2 |
| 6 | nt | 5[16.7 µM] | 10 |
| 7 | -28 | 3 | -19 |
| 8 | -93 | -1 | -93 |

Next part (4 carried over from the part before).
| nr | Molecule | PGC1a acetyl inh | MITF TRPM1 inh | Wnt bcat act |
| --- | --- | --- | --- | --- |
| 5 | CCC(=O)N(C)C[C@H]1Oc2ncc(C3=CCCC3)cc2C(=O)N([C@H](C)CO)C[C@@H]1C | 0 | nt | nt |
| 6 | Cc1noc(C)c1NC(=O)N(C)C[C@H]1OCCCC[C@H](C)Oc2ccc(NS(=O)(=O)c3ccc(Cl)cc3)cc2C(=O)N([C@H](C)CO)C[C@@H]1C | 2 | nt | nt |
| 7 | CCOc1ccc(OCc2cccc(C(=O)N3CCCC3)c2)cc1 | -10 | 29 | nt |
| 8 | CCOc1ccc(OCc2cccc(C(=O)O)c2)cc1 | 1 | 93* | -13 |
| 9 | O=C(OCC(F)(F)F)c1cccc(COc2ccc3ccccc3c2)c1 | 2 | 91* | nt |
| 10 | COc1ccccc1S(=O)(=O)N1CC[C@@H]2[C@@H](CO)N(C)c3ccc(-c4ccc(F)cc4)cc3[C@@H]21 | 11 | nt | nt |
| 11 | O=C(NCC[C@@H]1CC[C@H](NS(=O)(=O)c2ccc(Cl)cc2)[C@H](CO)O1)Nc1ccc(F)cc1 | -3 | nt | nt |
| 12 | COc1ccc(-c2cc3ccc(OCC(C)=O)cc3oc2=O)cc1OC | -26 | -97 | 23 |
| 13 | COc1ccc(-c2cc3ccc(OCC(C)=O)cc3oc2=O)cc1 | nt | -84 | 34* |
| 14 | O=c1oc2cc(O)ccc2cc1-c1ccccc1 | 5 | -49 | 0 |
| 15 | COc1ccc(-c2cc3ccc(O)cc3oc2=O)cc1 | 7 | -90 | 1 |
| 16 | C[C@@H]1CN([C@@H](C)CO)C(=O)c2cc(-c3ccc(F)cc3)cnc2O[C@@H]1CN(C)Cc1ccc(F)cc1 | 2 | nt | nt |

| nr | MITF TRPM1 HTS | miR122 inh | Yeast UUG start |
| --- | --- | --- | --- |
| 5 | nt | -1[16.7 µM] | 2 |
| 6 | nt | 5[16.7 µM] | 10 |
| 7 | -28 | 3 | -19 |
| 8 | -93 | -1 | -93 |
| 9 | -91 | -2 | nt |
| 10 | nt | 31[16.7 µM] | 1 |
| 11 | nt | nt | nt |
| 12 | 92* | 0 | 1 |
| 13 | 64 | nt | -5 |
| 14 | 44 | 2 | -14 |
| 15 | 89* | -4 | -42 |
| 16 | nt | 6[16.7 µM] | -24 |

Next section.
| nr | Molecule | PGC1a acetyl inh | MITF TRPM1 inh | Wnt bcat act |
| --- | --- | --- | --- | --- |
| 17 | CN(C)c1ccc(C2NC(=O)c3ccccc3N2)cc1 (stereo unspecified) | -2 | -116 | 31* |
| 18 | O=C1NC(c2ccc(Cl)cc2)Nc2ccccc21 (stereo unspecified) | nt | 5 | -2 |
| 19 | C[C@@H]1CCCCO[C@@H](CN(C)C(=O)Nc2ccc(F)cc2)[C@H](C)CN([C@@H](C)CO)C(=O)c2cc(NS(=O)(=O)c3ccc(F)cc3)ccc2O1 | -10 | nt | nt |
| 20 | O=C(/C=C\c1ccco1)Oc1cccc2cccnc12 | nt | 10 | 40* |
| 21 | COc1ccccc1/C=C/C(=O)Oc1cccc2cccnc12 | -6 | -12 | 62* |
| 22 | Cc1ccc2cccc(OC(=O)/C=C\c3ccccc3)c2n1 | 1 | nt | 0 |
| 23 | O=C(/C=C/c1ccco1)Oc1cccc2cccnc12 | nt | -17 | 0 |
| 24 | CC(=O)N(C)C[C@@H]1Oc2ncc(-c3ccc(C(=O)N(C)C)cc3)cc2C(=O)N([C@H](C)CO)C[C@@H]1C | 8 | nt | nt |

| nr | MITF TRPM1 HTS | miR122 inh | Yeast UUG start |
| --- | --- | --- | --- |
| 17 | 77 | 1 | -27 |
| 18 | -10 | nt | nt |
| 19 | nt | 1[16.7 µM] | -11 |
| 20 | -12 | nt | nt |
| 21 | 14 | -1 | -18 |
| 22 | nt | nt | nt |
| 23 | -16 | nt | nt |
| 24 | nt | -6[16.7 µM] | 2 |

(next part)
| nr | Molecule | PGC1a acetyl inh | MITF TRPM1 inh | Wnt bcat act |
| --- | --- | --- | --- | --- |
| 25 | C[C@H]1CN([C@@H](C)CO)C(=O)c2cc(-c3ccccc3F)cnc2O[C@@H]1CN(C)C(=O)C1CCC1 | -5 | nt | nt |
| 26 | O=C(CSc1nnc(-c2ccc(Br)cc2)o1)Nc1cccc(C(=O)O)c1 | 5 | 88* | 8 |
| 27 | COc1cccc(-c2nnc(SCC(=O)N(C(C)C)C(C)C)o2)c1 | nt | -18 | 50* |
| 28 | O=C(CSc1nnc(-c2cccc(Br)c2)o1)N1CCNC1=O | -8 | -85 | -1 |
| 29 | COc1cc(OC)cc(-c2nnc(SCC(=O)N(C(C)C)C(C)C)o2)c1 | -5 | -6 | nt |
| 30 | COc1ccc(-c2nnc(SCC(=O)Nc3cccc(Cl)c3)o2)cc1 | nt | -35 | 46* |
| 31 | C[C@@H]1CN([C@@H](C)CO)C(=O)Cc2cc(NS(C)(=O)=O)ccc2O[C@H]1CN(C)C(=O)Nc1ccc(F)cc1 | 6 | nt | nt |
| 32 | C[C@H](CO)N1C[C@H](C)[C@@H](CN(C)S(C)(=O)=O)Oc2ccc(NC(=O)Nc3cccc4ccccc34)cc2CC1=O | -7 | nt | nt |

| nr | MITF TRPM1 HTS | miR122 inh | Yeast UUG start |
| --- | --- | --- | --- |
| 25 | nt | 2[16.7 µM] | 7 |
| 26 | -88 | -1 | -17 |
| 27 | 24 | -25 | 4 |
| 28 | 88* | 4 | -8 |
| 29 | 4 | nt | -9 |
| 30 | nt | -5 | -22 |
| 31 | nt | -3[16.7 µM] | -5 |
| 32 | nt | 5[16.7 µM] | nt |

(continued)
| nr | Molecule | PGC1a acetyl inh | MITF TRPM1 inh | Wnt bcat act |
| --- | --- | --- | --- | --- |
| 33 | C[C@@H]1CN([C@@H](C)CO)C(=O)c2cc(NS(=O)(=O)c3cccs3)ccc2O[C@@H](C)CCCCO[C@@H]1CN(C)C(=O)Nc1ccccc1 | -1 | nt | nt |
| 34 | Cc1cccc(S(=O)(=O)N2C[C@@H](O)COC[C@H]3O[C@@H](CC(=O)NCc4ccncn4)CC[C@@H]32)c1 | 5 | nt | nt |
| 35 | CN(C)CCCNc1cc(C(C)(C)C)nc2c(-c3ccccc3)cnn12 | 10 | -62 | 43* |
| 36 | Cc1cc(NCc2ccccn2)n2ncc(-c3ccccc3)c2n1 | 0 | -19 | 56* |
| 37 | Cc1cc(NCc2ccccn2)n2ncc(-c3ccc(Cl)cc3)c2n1 | -14 | -69 | ? |
| 38 | Cc1ccc(C(=O)Nc2ccc(CC(=O)O)cc2)o1 | nt | 12 | nt |
| 39 | CC(C)(C)c1ccc(C(=O)Nc2ccc(CC(=O)O)cc2)o1 | 1 | 73* | nt |
| 40 | COc1ccc2cc(-c3ccccc3F)ncc2c1 | nt | -61 | 38* |

| nr | MITF TRPM1 HTS | miR122 inh | Yeast UUG start |
| --- | --- | --- | --- |
| 33 | nt | -7[16.7 µM] | 17 |
| 34 | nt | -1[16.7 µM] | -9 |
| 35 | nt | 0 | -8 |
| 36 | nt | -20 | -34 |
| 37 | nt | -17 | -34 |
| 38 | -8 | 26 | -10 |
| 39 | -73 | nt | -29 |
| 40 | 66 | -2 | -11 |

Carrying on:
| nr | Molecule | PGC1a acetyl inh | MITF TRPM1 inh | Wnt bcat act |
| --- | --- | --- | --- | --- |
| 41 | COc1ccc2cc(-c3cccnc3)ncc2c1 | 1 | -94 | ? |
| 42 | COc1ccc(-c2cc3ccc(OC)cc3cn2)cc1 | nt | 16 | 7 |
| 43 | C[C@@H]1CN([C@@H](C)CO)C(=O)c2cc(NC(=O)Nc3ccc4c(c3)OCO4)ccc2O[C@@H]1CN(C)S(C)(=O)=O | 4 | nt | nt |
| 44 | Cc1ccc(-n2c(C)csc2=N)cc1 | 3 | -56 | nt |
| 45 | Cc1csc(=N)n1-c1ccc(Cl)cc1 | -11 | -100 | -1 |
| 46 | CCN1/C(=C/c2cc[n+](C)cc2)C=Cc2cc(C)ccc21 | nt | 70* | nt |
| 47 | COc1ccc(OC)c(/C=N/N(C)c2ccccc2)c1 | 0 | -105 | nt |
| 48 | CN[C@H]1CCc2cc(OC)c(OC)c(OC)c2-c2ccc(N(C)CC(OC)OC)c(=O)cc21 | 5 | 24 | -6 |
| 49 | COc1cc2c(c(OC)c1OC)-c1ccc(OC)c(=O)cc1[C@@H](NC(C)=O)CC2 | 3 | 40 | 1 |

| nr | MITF TRPM1 HTS | miR122 inh | Yeast UUG start |
| --- | --- | --- | --- |
| 41 | 97* | -1 | 6 |
| 42 | -16 | 1 | -32 |
| 43 | nt | -4[16.7 µM] | -2 |
| 44 | 59 | nt | -11 |
| 45 | 97* | 5 | -20 |
| 46 | -69 | -5 | nt |
| 47 | 96* | -2 | -4 |
| 48 | -29 | 130* | 9 |
| 49 | -36 | 66 | 0 |
